This note sets out measurements from paper PMC4800991 (Molecular pharmaceutics, 2015).

Broadly, the IC50 is the concentration that inhibits the measured activity by half. Read a low IC50 as greater potency in that assay.

The target of the assay is T1, mouse THTR-2 (mTHTR-2) (Mus musculus, UniProt Q99PL8).
T1 sequence (Q99PL8 1-488): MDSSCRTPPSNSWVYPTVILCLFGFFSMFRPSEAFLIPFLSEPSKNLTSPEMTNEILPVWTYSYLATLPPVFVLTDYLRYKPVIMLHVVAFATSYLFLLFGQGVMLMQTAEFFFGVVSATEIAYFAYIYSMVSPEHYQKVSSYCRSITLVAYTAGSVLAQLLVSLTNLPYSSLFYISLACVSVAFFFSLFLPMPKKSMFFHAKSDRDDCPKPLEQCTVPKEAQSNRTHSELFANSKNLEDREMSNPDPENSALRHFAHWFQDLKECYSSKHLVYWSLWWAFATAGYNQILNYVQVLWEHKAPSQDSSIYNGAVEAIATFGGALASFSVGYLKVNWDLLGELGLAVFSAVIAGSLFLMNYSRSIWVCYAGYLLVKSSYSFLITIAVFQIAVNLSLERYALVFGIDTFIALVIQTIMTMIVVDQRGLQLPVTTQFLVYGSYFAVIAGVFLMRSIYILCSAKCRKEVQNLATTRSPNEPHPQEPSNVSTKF
As to the kind of experiment: cell-based.

For the compound `Cc1cnc(Nc2ccc(OCCN3CCCC3)cc2)nc1Nc1cccc(S(=O)(=O)NC(C)(C)C)c1` [fedratinib], half-maximal inhibition (IC50) required 22.2 ± 3.99 µM.
